The text below walks through data of PubChem BioAssay AID1346983 (Tox21, 2019).

Amino acid sequences for entries named in this document (tags omitted).
UniProt Q9R1A7, whole entry: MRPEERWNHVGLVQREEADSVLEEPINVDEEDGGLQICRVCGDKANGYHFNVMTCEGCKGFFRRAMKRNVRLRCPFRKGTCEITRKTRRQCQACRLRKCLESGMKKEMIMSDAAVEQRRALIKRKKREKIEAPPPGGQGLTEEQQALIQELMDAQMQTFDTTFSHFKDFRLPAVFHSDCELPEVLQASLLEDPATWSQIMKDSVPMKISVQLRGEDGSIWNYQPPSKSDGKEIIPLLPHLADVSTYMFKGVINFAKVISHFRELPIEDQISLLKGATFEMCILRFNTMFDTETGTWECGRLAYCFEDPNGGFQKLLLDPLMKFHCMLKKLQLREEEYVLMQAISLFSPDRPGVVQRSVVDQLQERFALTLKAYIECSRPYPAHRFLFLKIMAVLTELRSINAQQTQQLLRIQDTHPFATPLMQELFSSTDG

This is a selection; strong and weak results do not stand in their true shares. Some results for these compounds are left out of this collection, so the calls shown say nothing about other tests. Inconclusive results are not listed. Activity calls are given as the source filed them. Calls follow the shape of the dose curve; as a rule, active = well fitted activation curve with a large enough effect in the repeat runs; inconclusive = weak or mixed curves; inactive = no such curve, though single readings can be large or run the other way.
% is scaled to controls: 0 for no effect and ±100 for the full control effect.

In the assay the target is Nuclear receptor subfamily 1 group I member 2 (Rattus norvegicus) (UniProt Q9R1A7). The experiment in a line: Rat pregnane X receptor (rPXR) activation by small molecules, qHTS assay. Also: nearly all actives have a fitted effect of over 20% in size. The note with it: rPXR luciferase reporter cells, One-Glo luminescence, 24 h; stronger effect = higher value. The text has this: National Center for Advancing Translational Sciences [NCATS] NIH Chemical Genomics Center [NCGC] U.S. Environmental Protection Agency [EPA] National Institutes of Environmental Health Sciences [NIEHS] National Toxicology Program [NTP] Assay overview: The Pregnane X receptor (PXR), a ligand activated nuclear receptor plays a critical role in the regulation of genes involved in drug metabolism and transporters. PXR binds xenobiotics and when compounds interact with PXR produces enhanced expression of CYP3A genes. In humans PXR activation and CYP3A4 induction can be problematic due to their interactions with co-medicated drugs and decrease their efficacy or increase their own metabolism. However, there are known species-specific differences with regard to PXR activation that should be taken into account when animal PXR data are extrapolated to humans. A cell based rat PXR (rPXR) assay (developed by Puracyp, Inc., CA) was used to assess the activation of rPXR.
Assay Protocol Summary: rPXR cells were dispensed at 2,000 per well in 5uL of assay medium into white, solid-bottom 1536-well plates using a Multidrop Combi dispenser (Thermo Scientific). […] Then 5ul One-Glo assay reagent (Promega) was added to each plate by a Flying Reagent Dispenser (FRD, Aurora Discovery) and following 30 min incubation at room temperature, luciferase activity was quantified on a ViewLux plate reader (Perkin Elmer).
`CN1CCCC(OC(=O)C(O)(c2ccccc2)c2ccccc2)C1` (stereo unspecified): the max activation is inactive: 2.3%.
